# Conditions: Dasatinib + Omeprazole vs Dasatinib alone, geometric mean ratio, 90 mg Test Formulation, n = 16
smiles,measurement,value
"Cc1nc(Nc2ncc(C(=O)Nc3c(C)cccc3Cl)s2)cc(N2CCN(CCO)CC2)n1 [Dasatinib, dasatinib]",AUC(0-24 h) (Day 6/Day 1) Ratio,106.76%
same,AUC(0-∞) (Day 6/Day 1) Ratio,107.53%
same,Cmax (Day 6/Day 1) Ratio,85.67%
